Earlier results as cited in PMC12276038, “Impact of Chelation on Reactivity and Cytotoxicity of Hemilabile Biphenyl Gold(III) N‐Heterocyclic Carbene Complexes” (Chemmedchem, 2025).

Settings: molecules of known Log(k′w) used for calibration; cited from earlier work

CCCCc1ccccc1 [Butylbenzene]
log(k’w) of log P standard mix: 4.6
